Data on one compound can be found in patent US20250248979A1, “NOVEL GPX4 INHIBITORS AND USES THEREOF” (THE TRUSTEES OF COLUMBIA UNIVERSITY IN THE CITY OF NEW YORK, priority 2022, published 2025).

Amino acid sequences for entries named in this document (tags omitted).
UniProt P08588, whole entry, looked up: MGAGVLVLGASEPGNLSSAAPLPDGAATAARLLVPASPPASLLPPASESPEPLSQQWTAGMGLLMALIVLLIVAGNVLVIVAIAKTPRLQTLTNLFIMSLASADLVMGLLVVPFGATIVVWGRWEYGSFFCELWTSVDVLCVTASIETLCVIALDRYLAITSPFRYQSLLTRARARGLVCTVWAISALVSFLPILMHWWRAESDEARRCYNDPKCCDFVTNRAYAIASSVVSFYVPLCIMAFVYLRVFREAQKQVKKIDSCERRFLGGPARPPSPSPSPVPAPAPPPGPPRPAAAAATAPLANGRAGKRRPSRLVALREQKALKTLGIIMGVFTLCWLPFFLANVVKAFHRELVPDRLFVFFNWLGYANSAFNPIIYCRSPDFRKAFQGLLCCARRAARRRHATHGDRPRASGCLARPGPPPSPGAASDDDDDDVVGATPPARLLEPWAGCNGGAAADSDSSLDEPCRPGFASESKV

The target of the experiment is panel of 44 targets (GPCRs, ion channels, enzymes, transporters, nuclear receptors) (Homo sapiens, UniProt P08588).

Turning to `C=CCc1ccccc1OCC(O)CNC(C)C` (stereo not shown) [Alprenolol], half-maximal inhibition (IC50) required 43.7 nM.
